How the values were obtained:
[1] = room temperature or −80° C., HPLC

For “biotin-PEG5-cyclic(CVFAHNYDYLVC)-Tz5-Gllffk-Tz5-rrivk [PSA capture agent triligand]”, the “stability as a lyophilized powder” value [1] was “more than 6 weeks”, the “integrity after incubation with human serum” value (4-hour incubation, 37° C., 25% human serum) was “still intact” and the “fragmentation by HPLC analysis” value (24 hours, 37° C., 25% human serum) was “no fragmentation was observed”. For the same substance, the “stable to proteolytic degradation in human serum” value (physiological temperature and buffer) was “more than 24 h”.
